Tested on: MDCK cells
Details: dog

`NC(=O)c1ncn([C@@H]2O[C@H](CO)[C@@H](O)[C@H]2O)n1` [Ribavirin, 1-β-D-ribafuranosyl-1,2,4-triazole-3-carboxamide] was tested, and the “TC0 (maximum non-toxic / tolerable concentration)” value was >1.0 mg/mL.

— patent publication US20030054047A1 (priority 2001, published 2003)
